Assay results from ChEMBL document CHEMBL1141158, “New 5-hydroxytryptamine(1A) receptor ligands containing a norbornene nucleus: synthesis and in vitro pharmacological evaluation” (J Med Chem, 2005).

Protein sequences, listed by entry. Tags and fused reporters are not part of them.
UniProt P19327, whole entry: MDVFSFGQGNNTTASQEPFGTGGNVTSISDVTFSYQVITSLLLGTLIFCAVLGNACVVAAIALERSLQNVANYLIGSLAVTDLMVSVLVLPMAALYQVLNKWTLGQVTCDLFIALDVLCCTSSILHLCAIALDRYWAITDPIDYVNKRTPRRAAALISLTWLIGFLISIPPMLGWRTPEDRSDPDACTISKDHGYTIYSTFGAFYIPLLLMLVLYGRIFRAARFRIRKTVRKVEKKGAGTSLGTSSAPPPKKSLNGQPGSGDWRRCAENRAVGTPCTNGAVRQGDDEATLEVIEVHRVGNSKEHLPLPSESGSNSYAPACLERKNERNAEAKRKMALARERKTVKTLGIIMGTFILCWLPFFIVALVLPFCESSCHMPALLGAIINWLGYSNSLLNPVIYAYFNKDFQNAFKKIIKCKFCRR

Target: 5-hydroxytryptamine receptor 1A (Rattus norvegicus, UniProt P19327)
Test: Inhibition of [3H]8-OH-DPAT binding to Serotonin 5-HT1A receptor from rat brain cortex

Ki: 7.12 nM
Structure (SMILES): O=C1C2C3C=CC(C3)C2C(=O)N1OCCN1CCN(c2ccccc2Cl)CC1 (stereo unspecified)
